Earlier results as cited in patent US11198711B2 (priority 2013, dated 2021).

Tested on: Heliothis sp.
Details: native Hv1a, literature value; cited from earlier work

Substance: ω-ACTX-Hv1a
- LD50: 12 µg/g
